Source: patent publication US10919869B2, “Thiazole derivative and applications” (EAST CHINA UNIVERSITY OF SCIENCE AND TECHNOLOGY, priority 2016, dated 2021)
pIC50: −log10 of the molar value.

By UniProt entry, the sequences of proteins in these tests, tags left out. Where a name states a change or a piece, a line headed by the entry shows the natural chain unless it says otherwise.
UniProt Q02127: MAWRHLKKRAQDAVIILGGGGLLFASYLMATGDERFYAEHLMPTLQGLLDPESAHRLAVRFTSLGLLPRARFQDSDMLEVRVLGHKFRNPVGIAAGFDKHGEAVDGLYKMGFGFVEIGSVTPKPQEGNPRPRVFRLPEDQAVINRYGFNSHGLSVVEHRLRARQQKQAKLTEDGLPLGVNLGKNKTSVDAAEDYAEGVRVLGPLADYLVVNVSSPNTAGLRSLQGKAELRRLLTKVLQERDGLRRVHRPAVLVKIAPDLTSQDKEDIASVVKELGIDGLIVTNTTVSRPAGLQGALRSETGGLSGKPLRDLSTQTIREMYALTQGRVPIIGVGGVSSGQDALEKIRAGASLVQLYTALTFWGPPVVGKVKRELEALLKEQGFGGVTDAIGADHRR

Biological target: hsDHODH (Homo sapiens (Human), UniProt Q02127)
Assay: Activity test at enzyme level: DHODH inhibition, DCIP absorbance at 600 nm
Type: biochemical
Settings: pharmaceutically acceptable esters (prodrugs of A and B series)
Protocol: Culture and Purification of hsDHODH Protein
The correctly sequenced recombinant plasmid pET-19b-DHODH was transformed into competent E. coli BL21 (DE3), and cultured on LB plate containing ampicillin. Colonies were randomly selected, inoculated into LB medium containing […], and incubate overnight at 37° C., 230 rpm. The cells were inoculated at a ratio of 1:200 in 500 mL of LB medium containing […] and expanded at 37° C., 230 rpm. When the OD value of the cells reached 0.8-1, IPTG was added into the medium to a final concentration of IPDG of 0.5 mM, and expression was induced overnight at 25° C. […]
Principles of activity test at enzyme level: firstly, dihydroorotate (DHO) is oxidatively dehydrogenated by DHODH to form orotic acid (Orotate, OA), accompanied by reduction of Flavin mononucleotide (FMN) into reduced flavin mononucleotide (FMNH2) by accepting 2H+ and 2e−, then coenzyme Q (CoQ) as hydrogen acceptor accepting electron and proton from FMNH2 is reduced into reduced coenzyme Q (CoQH2), reduced coenzyme Q transfers electrons to a chromogenic substrate, […] (DCIP), and finally DCIP was reduced. […] The degree to which the substrate DHO is oxidized can be judged based on the degree of decrease in absorbance. […]

## CN(C)C(=O)c1ccccc1/C=N/N(C)c1nc(-c2ccccc2Cl)cs1 [Compound B12]
  pIC50: < 4.30
